Molecular target: D-dopachrome decarboxylase (Homo sapiens, UniProt P30046)
Assay: Inhibition of wild type human DDT tautomerase activity at 100 uM relative to control

Amino acid sequences for entries named in this document (tags omitted). A change or cut given only in a name is not applied to a line headed by its entry.
UniProt P30046: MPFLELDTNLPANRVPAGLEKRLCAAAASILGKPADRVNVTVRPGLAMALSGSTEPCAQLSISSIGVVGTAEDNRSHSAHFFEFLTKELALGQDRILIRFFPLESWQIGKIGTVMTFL

- Ratio Ki: 2
Structure (SMILES): O=C(O)c1cccc(-c2cc(C(=O)O)ncc2C(=O)O)c1

From ChEMBL document CHEMBL6182842, “Progress in the development of macrophage migration inhibitory factor small-molecule inhibitors” (Eur J Med Chem, 2025)
